# Binding of CDR-mutated scFvs to a peptide of the spike HR2 region

The measurements come from Li et al. 2023 (doi:10.1038/s41467-023-39022-2) through the FLAb antibody collection.

Antigen: PDVDLGDISGINAS, a 14-residue peptide of the SARS-CoV-2 spike HR2 region.

Parent scFv Ab-14: VH joined to VL by the linker GGGGSGGGGSGGGGS. Changes lie in the heavy chain CDRs alone.
VH: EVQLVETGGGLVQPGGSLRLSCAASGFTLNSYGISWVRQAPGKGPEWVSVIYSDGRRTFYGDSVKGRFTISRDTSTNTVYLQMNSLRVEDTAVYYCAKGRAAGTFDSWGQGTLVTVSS
VL: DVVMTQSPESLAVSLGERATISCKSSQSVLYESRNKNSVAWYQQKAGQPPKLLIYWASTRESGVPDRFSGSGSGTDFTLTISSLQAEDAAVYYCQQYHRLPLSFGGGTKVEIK

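The parent was found by panning a naive human phage display library on the peptide. These sequences belong to a second round, designed from the earlier measurements on random variants of the parent. Their group label is 14H_GP_Gen (GP: Gaussian process model; Gen: genetic algorithm; a sequence that several methods proposed may carry one label only). In AlphaSeq, yeast of one mating type display the scFv and yeast of the other type display the target. Binding brings cells together so that they mate, and sequencing counts the barcode pairs among the diploids. Scores were corrected for input abundance and mapped to Kd with protein pairs of known affinity run in the same pool. Mating was done six times.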

Each variant's VH is given in full.
Values are log10 of the apparent Kd in nM; lower means stronger binding.
Averages over replicates are reported, and they cover detected replicates only.
Where no diploid with the target was found in that replicate, the entry reads "nd": below detection, most likely a poor binder, though not proof of it.
The parent sequence was in this pool as ten entries: three were never detected, three once, and four in most replicates, with averages from 0.34 to 2.37.
The authors averaged sequences with at least three values out of six and counted those with two or fewer as poor binders.
As a blank, each scFv also met three strains without target: over all heavy chain designs, 1% of these pairings were detected, typically at 2.08 and seldom below 0.84. Also given: how often the same scFv was detected with the empty control strains, with their mean in brackets.
The range of this assay differs from that of the first round, and the authors advise against merging the two.

| VH | replicates, log10 nM | mean log10 Kd (nM) | control signals |
|---|---|---|---|
| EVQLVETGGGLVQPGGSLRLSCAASGFDLNSYGISWVRQAPGKGPEWVSVIYSDGRRTFYGDDVKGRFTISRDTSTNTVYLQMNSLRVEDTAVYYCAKGRTAGTFDSWGQGTLVTVSS | 1.08 / 0.98 / 0.89 / 0.47 / 0.42 / 1.24 | 0.85 | 0 of 18 |
| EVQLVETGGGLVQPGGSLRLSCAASGFDLNSFGISWVRQAPGKGPEWVSVIYSDGRRTFYGDSVKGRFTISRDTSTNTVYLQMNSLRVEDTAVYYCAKGRTAGTFDSWGQGTLVTVSS | 0.28 / 0.66 / 0.11 / 0.05 / 0.51 / 0.31 | 0.32 | 0 of 18 |
| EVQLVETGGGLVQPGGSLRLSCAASGFTLESYGISWVRQAPGKGPEWVSVIYADGRRTFYGDSVKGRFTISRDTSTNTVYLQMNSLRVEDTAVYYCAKGRAAGTFDQWGQGTLVTVSS | 0.34 / -0.10 / -0.07 / 0.29 / 0.31 / 1.02 | 0.30 | 1 of 18 (1.43) |
| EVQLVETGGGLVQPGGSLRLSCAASGFDLNSYGISWVRQAPGKGPEWVSVIYSDGKRTFYSDSVKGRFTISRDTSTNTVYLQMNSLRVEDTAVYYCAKGRQAGTFDSWGQGTLVTVSS | 0.30 / 0.48 / -0.04 / 0.09 / 0.03 / 0.63 | 0.25 | 2 of 18 (1.95) |
| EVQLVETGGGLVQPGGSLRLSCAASGFTLESYGISWVRQAPGKGPEWVSVIYADGRRTFYGDSVKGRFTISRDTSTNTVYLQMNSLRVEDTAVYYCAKGRAAGTFTSWGQGTLVTVSS | nd / nd / nd / 1.99 / nd / nd | 1.99 | 0 of 18 |
| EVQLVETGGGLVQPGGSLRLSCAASHFELNSYGISWVRQAPGKGPEWVSVIYSDGRRTFYADSVKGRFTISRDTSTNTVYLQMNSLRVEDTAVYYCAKGQTAGTFDSWGQGTLVTVSS | 1.04 / 0.75 / 0.02 / 0.46 / 0.47 / 0.54 | 0.55 | 1 of 18 (1.00) |
| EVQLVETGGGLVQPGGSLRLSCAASGFDLNSYGISWVRQAPGKGPEWVSVIYSDGRRTFYLDSVKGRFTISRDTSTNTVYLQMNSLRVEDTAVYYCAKGRNAGTFDSWGQGTLVTVSS | 0.36 / 0.06 / -0.04 / -0.09 / -0.26 / 0.34 | 0.06 | 0 of 18 |
| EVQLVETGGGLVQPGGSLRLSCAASGFGLNEYGISWVRQAPGKGPEWVSVIYSDGRRTFYHDSVKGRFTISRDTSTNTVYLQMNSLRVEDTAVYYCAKGRQAGTFDSWGQGTLVTVSS | 0.09 / 0.07 / -0.02 / 0.20 / 0.52 / 0.06 | 0.15 | 0 of 18 |
| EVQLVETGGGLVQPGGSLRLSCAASGFDLNSYGISWVRQAPGKGPEWVSVIYSDGKRTFYSDSVKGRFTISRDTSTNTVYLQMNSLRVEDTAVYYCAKGQAAGTFDSWGQGTLVTVSS | 0.73 / -0.02 / 0.19 / 0.34 / 0.55 / -0.05 | 0.29 | 0 of 18 |
| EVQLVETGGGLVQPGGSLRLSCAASGFSLNEYGISWVRQAPGKGPEWVSVIYSDGRRTFYGDQVKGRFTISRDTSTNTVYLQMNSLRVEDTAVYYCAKGQTAGTFDSWGQGTLVTVSS | 0.25 / 0.39 / 0.21 / 0.26 / 0.20 / 0.46 | 0.30 | 0 of 18 |
| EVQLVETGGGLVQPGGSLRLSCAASGFSLNSYGISWVRQAPGKGPEWVSVIYSDGRRTFYVDSVKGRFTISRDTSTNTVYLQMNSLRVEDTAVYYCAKGRQAGTFDAWGQGTLVTVSS | 1.62 / 1.58 / 1.14 / 1.78 / 1.75 / 1.48 | 1.56 | 0 of 18 |
| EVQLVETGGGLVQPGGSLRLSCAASGFSLNEYGISWVRQAPGKGPEWVSVIYSDGRRTFYHDSVKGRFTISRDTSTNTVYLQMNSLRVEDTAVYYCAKGNAAGTFDSWGQGTLVTVSS | 0.31 / 0.44 / 0.52 / 0.70 / 0.59 / 0.65 | 0.54 | 0 of 18 |
| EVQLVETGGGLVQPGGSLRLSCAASGFELNEYGISWVRQAPGKGPEWVSVIYSDGRRTFYGDSVKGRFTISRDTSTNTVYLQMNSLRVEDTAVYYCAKGKAAGTFDSWGQGTLVTVSS | 0.27 / 0.53 / 0.33 / 1.02 / 0.62 / 0.48 | 0.54 | 0 of 18 |
| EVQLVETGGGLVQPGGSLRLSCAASGFDLNSYGISWVRQAPGKGPEWVSVIYSDGRRTFYQDSVKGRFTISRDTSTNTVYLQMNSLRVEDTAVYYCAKGREAGTFDTWGQGTLVTVSS | 1.42 / 1.41 / nd / nd / nd / 1.68 | 1.50 | 0 of 18 |
| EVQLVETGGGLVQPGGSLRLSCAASGFQLNEYGISWVRQAPGKGPEWVSVIYSDGRRTFYGDDVKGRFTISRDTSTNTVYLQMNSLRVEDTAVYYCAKGRTAGTFDSWGQGTLVTVSS | 0.20 / -0.54 / -0.97 / -0.28 / -0.40 / -0.34 | -0.39 | 0 of 18 |
| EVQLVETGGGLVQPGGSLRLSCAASGFDLNSYGISWVRQAPGKGPEWVSVIYSDGRRTFYQDSVKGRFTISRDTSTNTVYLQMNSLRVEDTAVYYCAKGRVAGTFDSWGQGTLVTVSS | nd / nd / nd / nd / nd / nd | nd | 0 of 18 |
| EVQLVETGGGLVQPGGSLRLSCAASGFELNMYGISWVRQAPGKGPEWVSVIYSDGRRTFYSDSVKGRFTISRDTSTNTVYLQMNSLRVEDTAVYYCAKGEAAGTFDSWGQGTLVTVSS | 0.57 / 2.12 / 0.93 / nd / 1.82 / 0.17 | 1.12 | 0 of 18 |
| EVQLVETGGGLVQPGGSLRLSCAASGFDLNSYGISWVRQAPGKGPEWVSVIYSDGRRTFYGDKVKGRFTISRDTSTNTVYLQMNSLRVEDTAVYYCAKGRQAGTFDSWGQGTLVTVSS | 0.60 / 0.64 / 0.99 / 0.00 / -0.05 / 0.51 | 0.45 | 0 of 18 |
| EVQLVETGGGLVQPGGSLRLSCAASGFELNSYGISWVRQAPGKGPEWVSVIYSDGKRTFYADSVKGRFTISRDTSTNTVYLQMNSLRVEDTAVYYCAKGRAAGTFDSWGQGTLVTVSS | 1.36 / 0.92 / 0.13 / 1.12 / 1.33 / 0.35 | 0.87 | 0 of 18 |
| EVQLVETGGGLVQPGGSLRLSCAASMFELNSYGISWVRQAPGKGPEWVSVIYSDGRRTFYIDSVKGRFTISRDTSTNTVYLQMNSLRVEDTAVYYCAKGNAAGTFDSWGQGTLVTVSS | nd / nd / nd / nd / nd / nd | nd | 1 of 18 (1.69) |
| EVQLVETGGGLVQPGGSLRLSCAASGFWLNEYGISWVRQAPGKGPEWVSVIYSDGRRTFYGDSVKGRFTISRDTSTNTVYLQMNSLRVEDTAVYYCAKGRLAGTFDSWGQGTLVTVSS | nd / nd / 1.14 / 1.27 / 1.65 / 1.86 | 1.48 | 0 of 18 |
| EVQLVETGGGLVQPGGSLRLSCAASGFSLNSYGISWVRQAPGKGPEWVSVIYSDGRRTFYADNVKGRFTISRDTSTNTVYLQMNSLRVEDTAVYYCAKGQTAGTFDSWGQGTLVTVSS | 0.05 / 0.02 / 0.36 / 0.13 / 0.13 / 0.18 | 0.14 | 0 of 18 |
| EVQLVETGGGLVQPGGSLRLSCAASGFNLNSYGISWVRQAPGKGPEWVSVIYSDGRRTFYGDAVKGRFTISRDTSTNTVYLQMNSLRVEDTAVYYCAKGQTAGTFDSWGQGTLVTVSS | 0.75 / 0.97 / 0.93 / 1.04 / 2.12 / 0.95 | 1.13 | 0 of 18 |
| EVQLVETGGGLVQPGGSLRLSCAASGFELNSYGISWVRQAPGKGPEWVSVIYADGRRTFYGDSVKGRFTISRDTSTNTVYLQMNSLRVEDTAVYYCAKGQAAGTFDQWGQGTLVTVSS | -0.11 / 0.01 / -0.06 / -0.26 / -0.24 / 0.00 | -0.11 | 0 of 18 |
| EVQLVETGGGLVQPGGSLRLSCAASMFDLNSYGISWVRQAPGKGPEWVSVIYSDGRRTFYIDSVKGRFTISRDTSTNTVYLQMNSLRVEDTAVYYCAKGRTAGTFDSWGQGTLVTVSS | 1.00 / 1.47 / 1.43 / 0.90 / 1.73 / nd | 1.31 | 0 of 18 |
| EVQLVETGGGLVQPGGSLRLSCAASGFELNEYGISWVRQAPGKGPEWVSVIYSDGRRTFYADSVKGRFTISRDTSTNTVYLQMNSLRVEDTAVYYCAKGKAAGTFDSWGQGTLVTVSS | 0.00 / -0.34 / -0.13 / -0.47 / -0.42 / -0.39 | -0.29 | 0 of 18 |
| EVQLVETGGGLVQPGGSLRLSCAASGFDLNSYGISWVRQAPGKGPEWVSVIYSDGRRTFYLDSVKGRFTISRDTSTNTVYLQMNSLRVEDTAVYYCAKGREAGTFDSWGQGTLVTVSS | 0.19 / -0.25 / -0.05 / -0.44 / -0.18 / 0.16 | -0.09 | 0 of 18 |

From the list, the first 2 with no signal in any replicate:

| VH | replicates, log10 nM | mean log10 Kd (nM) | control signals |
|---|---|---|---|
| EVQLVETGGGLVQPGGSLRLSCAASGFDLNSYGISWVRQAPGKGPEWVSVIYSDGRRTFYQDSVKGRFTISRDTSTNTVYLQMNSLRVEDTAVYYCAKGRVAGTFDSWGQGTLVTVSS | nd / nd / nd / nd / nd / nd | nd | 0 of 18 |
| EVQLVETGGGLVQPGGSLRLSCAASMFELNSYGISWVRQAPGKGPEWVSVIYSDGRRTFYIDSVKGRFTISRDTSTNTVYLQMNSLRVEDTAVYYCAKGNAAGTFDSWGQGTLVTVSS | nd / nd / nd / nd / nd / nd | nd | 1 of 18 (1.69) |